Like-named read-outs stand apart in the source and are kept apart here.
Assays:
SSTR3 [1] = molecular target: T1, SSTR3 (Homo sapiens, UniProt P32745)
SSTR5 [2] = molecular target: T2, SSTR5 (Homo sapiens, UniProt P35346)
SSTR2 [3] = molecular target: T3, SSTR2 (Homo sapiens, UniProt P30874)
SSTR1 [4] = molecular target: T4, SSTR1 (Homo sapiens, UniProt P30872)
[5] = Pharmacokinetics test with rats (intravenous and subcutaneous administration); conditions: rats; for BA: subcutaneous vs intravenous
[6] = tested on: growth hormone (GH) production; test: GH production suppression test with rats; format: in vivo; conditions: Table 8 (Example 87), vehicle 1012
SSTR1 [7] = molecular target: T4, SSTR1; test: Competitive binding assay, SSTR1; conditions: for IC50: read-out: SSTR1 IC50
SSTR2 [8] = molecular target: T3, SSTR2; test: Competitive binding assay, SSTR2; conditions: Table 3B, Example 67-2, competitive binding assay; for IC50: read-out: SSTR2 IC50; for Ki: read-out: SSTR2 Ki
SSTR3 [9] = molecular target: T1, SSTR3; test: Competitive binding assay, SSTR3; conditions: for IC50: read-out: SSTR3 IC50
SSTR5 [10] = molecular target: T2, SSTR5; test: Competitive binding assay, SSTR5; conditions: for IC50: read-out: SSTR5 IC50
[11] = Table 5A (Examples 69-72), spread in the line below
[12] = BA=(AUC(sc)/Dose(sc))/(AUC(iv)/Dose(iv)), Table 5A
[13] = Table 3B, Example 67-2, competitive binding assay
[14] = read-out: SSTR1 Ki, Table 3B, Example 67-2, competitive binding assay
[15] = read-out: SSTR5 Ki, Table 3B, Example 67-2, competitive binding assay
[16] = read-out: SSTR3 Ki, Table 3B, Example 67-2, competitive binding assay

Protein sequences, listed by entry. Tags and fused reporters are not part of them. Lines headed by an entry give the natural chain unless they say otherwise; changes in a name come on top.
UniProt P32745: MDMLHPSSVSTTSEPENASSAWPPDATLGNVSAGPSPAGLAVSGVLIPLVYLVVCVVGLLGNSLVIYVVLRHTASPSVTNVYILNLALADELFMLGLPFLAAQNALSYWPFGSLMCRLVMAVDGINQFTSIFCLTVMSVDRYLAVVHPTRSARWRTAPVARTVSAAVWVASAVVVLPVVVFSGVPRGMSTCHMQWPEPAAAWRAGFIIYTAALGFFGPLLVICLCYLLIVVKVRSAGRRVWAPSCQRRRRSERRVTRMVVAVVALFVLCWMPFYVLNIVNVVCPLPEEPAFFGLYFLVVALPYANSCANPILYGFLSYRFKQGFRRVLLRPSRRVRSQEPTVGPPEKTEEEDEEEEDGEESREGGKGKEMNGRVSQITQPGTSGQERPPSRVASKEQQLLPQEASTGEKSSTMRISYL
UniProt P35346: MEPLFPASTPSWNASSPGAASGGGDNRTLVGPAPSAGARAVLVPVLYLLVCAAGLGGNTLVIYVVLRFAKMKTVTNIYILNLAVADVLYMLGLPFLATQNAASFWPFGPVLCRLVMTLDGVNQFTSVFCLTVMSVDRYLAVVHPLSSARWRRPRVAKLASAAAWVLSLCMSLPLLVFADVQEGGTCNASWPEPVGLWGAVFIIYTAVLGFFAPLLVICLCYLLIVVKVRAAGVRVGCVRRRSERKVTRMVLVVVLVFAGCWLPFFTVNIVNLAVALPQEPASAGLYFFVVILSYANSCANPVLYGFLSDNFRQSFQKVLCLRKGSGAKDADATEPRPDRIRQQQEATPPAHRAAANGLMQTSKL
UniProt P30874: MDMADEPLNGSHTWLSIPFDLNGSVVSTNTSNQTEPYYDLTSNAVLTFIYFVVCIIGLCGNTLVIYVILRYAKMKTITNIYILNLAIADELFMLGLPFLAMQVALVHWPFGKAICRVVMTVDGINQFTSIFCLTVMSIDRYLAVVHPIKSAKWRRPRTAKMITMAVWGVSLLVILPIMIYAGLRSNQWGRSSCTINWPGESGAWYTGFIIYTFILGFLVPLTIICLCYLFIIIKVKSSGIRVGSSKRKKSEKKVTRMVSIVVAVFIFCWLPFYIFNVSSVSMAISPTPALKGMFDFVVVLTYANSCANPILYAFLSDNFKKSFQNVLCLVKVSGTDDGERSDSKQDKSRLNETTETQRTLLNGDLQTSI
UniProt P30872: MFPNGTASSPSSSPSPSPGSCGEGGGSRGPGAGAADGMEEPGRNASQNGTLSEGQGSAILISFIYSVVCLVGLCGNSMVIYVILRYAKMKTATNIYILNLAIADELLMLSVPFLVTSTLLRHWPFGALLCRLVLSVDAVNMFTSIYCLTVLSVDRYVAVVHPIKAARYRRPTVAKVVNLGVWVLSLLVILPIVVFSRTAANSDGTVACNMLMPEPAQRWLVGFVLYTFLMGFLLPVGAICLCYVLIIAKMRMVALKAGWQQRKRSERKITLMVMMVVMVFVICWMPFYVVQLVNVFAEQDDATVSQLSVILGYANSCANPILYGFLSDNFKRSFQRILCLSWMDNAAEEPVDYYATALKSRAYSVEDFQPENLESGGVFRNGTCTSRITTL

Substance	IC50 (SSTR1 [7]; [13]) [nM]	Ki (SSTR1 [7]; [14]) [nM]	IC50 (SSTR2 [8]) [nM]	Ki (SSTR2 [8]) [nM]	IC50 (SSTR3 [9]; [13]) [nM]	IC50 (SSTR5 [10]; [13]) [nM]	Ki (SSTR5 [10]; [15]) [nM]	Ki (SSTR3 [9]; [16]) [nM]	further results
29C(disialo)-SRIF28 [Example 13]	–	–	–	–	–	–	–	–	IC50 (SSTR3 [1]): 7 nM; Ki (SSTR3 [1]): 2.39 nM; IC50 (SSTR5 [2]): 3.73 nM; Ki (SSTR5 [2]): 2.11 nM; IC50 (SSTR2 [3]): 0.738 nM; Ki (SSTR2 [3]): 0.392 nM; IC50 (SSTR1 [4]): 4.43 nM; Ki (SSTR1 [4]): 3.67 nM; Intravenous administration C0 ([5]; Tables 5B-5F (Examples 73-84)): 359 nM; Intravenous administration MRT ([5]; Tables 5B-5F (Examples 73-84)): 25.3 min; Intravenous administration T1/2 ([5]; Tables 5B-5F (Examples 73-84)): 23.7 min
30C(disialo)-SRIF28 [Example 14]	–	–	–	–	–	–	–	–	IC50 (SSTR3 [1]): 6.91 nM; Ki (SSTR3 [1]): 2.36 nM; IC50 (SSTR2 [3]): 0.912 nM; Ki (SSTR2 [3]): 0.275 nM; IC50 (SSTR1 [4]): 4.21 nM; Ki (SSTR1 [4]): 3.48 nM
A9C(disialo)-D-Trp22-SRIF28 [Example 16]	–	–	–	–	–	–	–	–	IC50 (SSTR3 [1]): 0.256 nM; Ki (SSTR3 [1]): 0.0876 nM; IC50 (SSTR5 [2]): 0.194 nM; Ki (SSTR5 [2]): 0.11 nM; IC50 (SSTR2 [3]): 0.0396 nM; Ki (SSTR2 [3]): 0.021 nM; IC50 (SSTR1 [4]): 6.92 nM; Ki (SSTR1 [4]): 6.73 nM
A9C(disialo)-SRIF28 [Example 3]	–	–	–	–	–	–	–	–	GH ([6]; dose 1 nmol/kg): 577 ng/mL; GH ([6]; dose 10 nmol/kg): 20 ng/mL; IC50 (SSTR3 [1]): 0.593 nM; Ki (SSTR3 [1]): 0.203 nM; IC50 (SSTR5 [2]): 0.471 nM; Ki (SSTR5 [2]): 0.266 nM; IC50 (SSTR2 [3]): 0.0741 nM; Ki (SSTR2 [3]): 0.0394 nM; IC50 (SSTR1 [4]): 2.08 nM; Ki (SSTR1 [4]): 1.72 nM; Intravenous administration AUC [5, 11]: 4083 nM·min; Intravenous administration C0 [5, 11]: 547 nM; Intravenous administration MRT [5, 11]: 25.2 min; Intravenous administration t1/2 [5, 11]: 19.9 min; Subcutaneous administration AUC [5, 11]: 2462 nM·min; Subcutaneous administration Cmax [5, 11]: 30.2 nM; Subcutaneous administration MRT [5, 11]: 55.6 min; Subcutaneous administration t1/2 [5, 11]: 30.3 min; BA [5, 12]: 60%
A15C(disialo)-SRIF28 [Example 7]	11.4	9.43	0.938	0.498	3.49	3.84	2.17	–	–
Azido-S1C(disialo)-SRIF28 [Example 46]	8.82	–	1.29	0.69	3.17	0.84	0.47	1.09	–
Biotin-PEG linker-S1C(disialo)-SRIF28 [Example 45]	9.41	7.39	1.86	1.04	3.41	2	1.13	–	–
Biotin-S1C(disialo)-SRIF28 [Example 44]	–	9.05	1.68	0.89	–	2.42	1.37	1	–
C(disialo(aminoethylamide))/S1C(disialo)-SRIF28 [Example 65]	–	–	–	–	–	–	–	–	Intravenous administration AUC ([5]; Tables 5B-5F (Examples 73-84)): 3742 nM·min; Intravenous administration C0 ([5]; Tables 5B-5F (Examples 73-84)): 518 nM; Intravenous administration MRT ([5]; Tables 5B-5F (Examples 73-84)): 20.5 min; Intravenous administration T1/2 ([5]; Tables 5B-5F (Examples 73-84)): 22.5 min; Subcutaneous administration AUC ([5]; Tables 5B-5F (Examples 73-84)): 1289 nM·min; Subcutaneous administration Cmax ([5]; Tables 5B-5F (Examples 73-84)): 16.2 nM; Subcutaneous administration MRT ([5]; Tables 5B-5F (Examples 73-84)): 64.7 min; Subcutaneous administration T1/2 ([5]; Tables 5B-5F (Examples 73-84)): 42.3 min; BA ([5]; Tables 5B-5F (Examples 73-84)): 34%
C(disialo)-SRIF28 [Example 34]	5.57	4.61	0.478	0.255	2.55	2.62	1.48	0.87	–
E12C(disialo)-SRIF28 [Example 4]	–	–	–	–	–	–	–	–	IC50 (SSTR3 [1]): 0.362 nM; Ki (SSTR3 [1]): 0.124 nM; IC50 (SSTR5 [2]): 0.376 nM; Ki (SSTR5 [2]): 0.212 nM; IC50 (SSTR1 [4]): 1.7 nM; Ki (SSTR1 [4]): 1.4 nM; BA ([5]; Tables 5B-5F (Examples 73-84)): 27%
F25C(disialo)-SRIF28 [Example 38]	> 1000	> 828	> 1000	> 531	> 1000	53	–	> 342	Ki (SSTR5 [10]; read-out: Ki value against SSTR5, Example 67-2 (text on Table 3B)): 33 nM
G16C(disialo)-SRIF28 [Example 8]	17.4	14.4	1.22	0.646	3.12	5.67	3.21	–	–
K18C(disialo)-SRIF28 [Example 9]	45.4	37.6	–	6.51	14.7	160	95	5.03	–
N5N(disialo)-SRIF28 [Example 30]	–	–	–	–	–	–	–	–	IC50 (SSTR3 [1]): 0.579 nM; Ki (SSTR3 [1]): 0.198 nM; IC50 (SSTR5 [2]): 0.465 nM; Ki (SSTR5 [2]): 0.263 nM; IC50 (SSTR2 [3]): 0.0685 nM; Ki (SSTR2 [3]): 0.0364 nM; Ki (SSTR1 [4]): 2.5 nM
R11C(disialo)-SRIF28 [Example 35]	22	18.2	1.38	0.735	6.34	3.65	–	2.17	–
S1-2C(disialo(Bn))-SRIF28 [Example 62]	–	4.97	–	0.44	2.58	–	1.47	0.88	Intravenous administration AUC ([5]; Tables 5B-5F (Examples 73-84)): 5525 nM·min; Intravenous administration C0 ([5]; Tables 5B-5F (Examples 73-84)): 807 nM; Intravenous administration MRT ([5]; Tables 5B-5F (Examples 73-84)): 20.7 min; Intravenous administration T1/2 ([5]; Tables 5B-5F (Examples 73-84)): 25.6 min; Subcutaneous administration AUC ([5]; Tables 5B-5F (Examples 73-84)): 1843 nM·min; Subcutaneous administration Cmax ([5]; Tables 5B-5F (Examples 73-84)): 21.5 nM; Subcutaneous administration MRT ([5]; Tables 5B-5F (Examples 73-84)): 59.4 min; Subcutaneous administration T1/2 ([5]; Tables 5B-5F (Examples 73-84)): 33.9 min; BA ([5]; Tables 5B-5F (Examples 73-84)): 33%
S1-2C(disialo(amide))-SRIF28 [Example 61]	6.92	5.73	–	0.44	2.06	2.67	1.51	0.71	Intravenous administration AUC ([5]; Tables 5B-5F (Examples 73-84)): 5268 nM·min; Intravenous administration C0 ([5]; Tables 5B-5F (Examples 73-84)): 737 nM; Intravenous administration MRT ([5]; Tables 5B-5F (Examples 73-84)): 20.5 min; Intravenous administration T1/2 ([5]; Tables 5B-5F (Examples 73-84)): 23.8 min; Subcutaneous administration AUC ([5]; Tables 5B-5F (Examples 73-84)): 1297 nM·min; Subcutaneous administration Cmax ([5]; Tables 5B-5F (Examples 73-84)): 16.3 nM; Subcutaneous administration MRT ([5]; Tables 5B-5F (Examples 73-84)): 55.8 min; Subcutaneous administration T1/2 ([5]; Tables 5B-5F (Examples 73-84)): 33.1 min; BA ([5]; Tables 5B-5F (Examples 73-84)): 25%
S1-4C(disialo)-SRIF28 [Example 66]	–	100	3.76	2	10	10	5.82	3.43	extension of t1/2 compared to the non-glycosylated form (SRIF28 or SRIF14) ([5]; administered intravenously): 48 folds; increase of AUC compared to the non-glycosylated form (SRIF28 or SRIF14) ([5]; administered intravenously): 15 folds; Intravenous administration AUC ([5]; Tables 5B-5F (Examples 73-84)): 7070 nM·min; Intravenous administration C0 ([5]; Tables 5B-5F (Examples 73-84)): 1007 nM; Intravenous administration MRT ([5]; Tables 5B-5F (Examples 73-84)): 25.2 min; Intravenous administration T1/2 ([5]; Tables 5B-5F (Examples 73-84)): 63.5 min; Subcutaneous administration AUC ([5]; Tables 5B-5F (Examples 73-84)): 4554 nM·min; Subcutaneous administration Cmax ([5]; Tables 5B-5F (Examples 73-84)): 22.0 nM; Subcutaneous administration MRT ([5]; Tables 5B-5F (Examples 73-84)): 172 min; Subcutaneous administration T1/2 ([5]; Tables 5B-5F (Examples 73-84)): 119 min; BA ([5]; Tables 5B-5F (Examples 73-84)): 64%
S1C(disialo (hexadecylamide))-SRIF28 [Example 60]	5.53	4.57	1.04	0.55	–	37	21	3.75	–
S1C(disialo)-F25Y-SRIF28 [Example 41]	1.77	1.46	0.31	0.16	0.48	1.09	0.62	0.16	–
S1C(disialo).R13C(disialo)-SRIF28 [Example 22]	–	–	–	–	–	–	–	–	Ki (SSTR3 [1]): 3.77 nM; IC50 (SSTR5 [2]): 14.7 nM; Ki (SSTR5 [2]): 8.33 nM; IC50 (SSTR2 [3]): 6.28 nM; IC50 (SSTR1 [4]): 177 nM; Ki (SSTR1 [4]): 147 nM; Intravenous administration AUC [5, 11]: 4029 nM·min; Intravenous administration C0 [5, 11]: 822 nM; Intravenous administration MRT [5, 11]: 20.6 min; Intravenous administration t1/2 [5, 11]: 23.4 min; Subcutaneous administration AUC [5, 11]: 3407 nM·min; Subcutaneous administration Cmax [5, 11]: 38.7 nM; Subcutaneous administration MRT [5, 11]: 67.7 min; Subcutaneous administration t1/2 [5, 11]: 39.6 min; BA [5, 12]: 85%
S1N(disialo).N19C(diMan)-SRIF28 [Example 64]	35	29	5.65	3	3.9	8.53	4.82	1.33	–
S27C(disialo)-SRIF28 [Example 39]	28.4	23.5	0.326	0.17	6.77	4.94	2.8	2.31	–
T26C(disialo)-SRIF28 [Example 12]	21.6	–	310	160	21.7	480	230	–	Ki (SSTR1 [7]; read-out: Ki value against SSTR1, Example 67-2 (text on Table 3B)): 17.9 nM; Ki (SSTR3 [9]; read-out: Ki value against SSTR3, Example 67-2 (text on Table 3B)): 7.44 nM

From US20170157260A1, “Glycosylated Polypeptide and Drug Composition Containing said Polypeptide” (Glytech, Inc., priority 2011, published 2017)
